# Ab-14 heavy chain CDR variants: yeast mating affinities

Data: MIT Lincoln Laboratory AlphaSeq set, Engelhart et al. 2022, doi:10.1038/s41597-022-01779-4, as distributed in FLAb.

Target peptide (SARS-CoV-2 spike, HR2 region): PDVDLGDISGINAS

Parent scFv Ab-14: VH joined to VL by a (GGGGS)3 linker. Changes lie in the heavy chain CDRs alone.
VH: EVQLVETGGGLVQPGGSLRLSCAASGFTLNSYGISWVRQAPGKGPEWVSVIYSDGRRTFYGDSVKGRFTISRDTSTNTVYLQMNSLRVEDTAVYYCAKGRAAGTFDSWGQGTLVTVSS
VL: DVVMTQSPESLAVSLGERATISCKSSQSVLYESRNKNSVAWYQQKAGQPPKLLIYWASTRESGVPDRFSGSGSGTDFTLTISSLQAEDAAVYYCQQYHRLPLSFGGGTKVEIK

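The parent was found by panning a naive human phage display library on the peptide. In library AAYL49, one, two or three CDR residues were substituted; doubles and triples were drawn at random. The assay is AlphaSeq: two haploid yeast populations carry antibody and antigen on their surface. After mating in shaken culture at 30 °C for 16 h, diploids were selected and their barcode pairs sequenced. A regression on co-assayed BCL2-family reference pairs converts the normalised counts of each replicate to an apparent Kd. There are three technical replicates.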

Substitutions are numbered in sequence along the VH above, starting at 1 (not Kabat).
The read-out is the apparent dissociation constant on a log10 scale (nM): the lower, the stronger.
A pair that was not seen in that replicate is written "n.d."; this usually means weak binding, but a binder can also be missed.
Empty control strains, which show no peptide, gave a signal in 15% of pairings with library AAYL49; the median was 4.06 and 95% of these signals were weaker than 2.83. No background was subtracted. For each scFv, signals with the empty controls are counted beside the result, with their mean in brackets.

| # | changes | replicates, log10 nM | signal with controls |
|---|---|---|---|
| 1 | N30M S31V T58D | n.d. n.d. n.d. | 1/9 (4.07) |
| 2 | Y32W V50L F105W | n.d. n.d. n.d. | 0/9 |
| 3 | I34H G55Q F105Y | n.d. n.d. n.d. | 1/9 (5.01) |
| 4 | G26N F27S F59I | n.d. n.d. n.d. | 2/9 (2.85) |
| 5 | L29T D62R | n.d. n.d. 4.03 | 2/9 (3.53) |
| 6 | S35V D62C K65D | n.d. n.d. n.d. | 0/9 |
| 7 | G26Q I34P D62V | n.d. n.d. n.d. | 0/9 |
| 8 | G26Y T58I A102Y | n.d. n.d. n.d. | 0/9 |
| 9 | F27E V50K S107F | n.d. n.d. n.d. | 1/9 (4.99) |
| 10 | I34Q V64W A102D | n.d. 4.59 3.60 | 3/9 (3.85) |
| 11 | G33M Y52A G103M | n.d. n.d. n.d. | 3/9 (2.73) |
| 12 | Y52S G103K F105Y | n.d. 4.64 n.d. | 2/9 (3.27) |
| 13 | G26W | n.d. 3.03 3.61 | 0/9 |
| 14 | S31R G61V | 1.63 2.31 1.07 | 0/9 |
| 15 | G26Q T28I K65P | n.d. n.d. n.d. | 2/9 (4.12) |
| 16 | R56L G61D K65A | 0.42 0.66 0.54 | 4/9 (4.70) |
| 17 | T28N N30L Y60P | n.d. n.d. n.d. | 0/9 |
| 18 | R56Y A102H G103Y | n.d. n.d. n.d. | 0/9 |
| 19 | N30D F59W D106V | 1.46 1.78 1.77 | 1/9 (3.28) |
| 20 | G55V R56F G99Y | n.d. n.d. n.d. | 0/9 |
| 21 | K65C A101C T104S | n.d. 4.04 3.98 | 0/9 |
| 22 | I51K D62Y S63M | n.d. n.d. n.d. | 0/9 |
| 23 | T28K R56Y G61T | 1.04 1.14 1.11 | 1/9 (3.39) |
| 24 | T28L D54L | n.d. n.d. n.d. | 0/9 |
| 25 | F27D D62A | 1.72 1.57 1.71 | 1/9 (4.58) |
| 26 | Y32T Y52P A101S | n.d. n.d. n.d. | 0/9 |
| 27 | G33W V50T A102I | n.d. n.d. 5.19 | 4/9 (3.79) |
| 28 | L29I G99D | 0.42 0.77 0.40 | 0/9 |
| 29 | T58R D62C D106F | n.d. n.d. n.d. | 0/9 |
| 30 | D54M G61L D106A | n.d. n.d. n.d. | 2/9 (3.31) |
| 31 | S31W G61R V64N | 4.62 n.d. n.d. | 3/9 (4.37) |
| 32 | T28S D54G S63F | n.d. n.d. n.d. | 0/9 |
| 33 | L29H V50A Y52D | 4.09 n.d. 4.90 | 0/9 |
| 34 | D54T Y60L V64H | n.d. n.d. n.d. | 0/9 |
| 35 | S35K D54L | n.d. n.d. n.d. | 0/9 |
| 36 | N30W D106I S107R | 1.70 2.00 1.73 | 0/9 |
| 37 | D54N Y60I K65F | 3.59 n.d. n.d. | 3/9 (4.37) |
| 38 | F27K S53V R57P | n.d. n.d. n.d. | 4/9 (3.31) |
| 39 | F27S T28V | 0.91 1.02 1.33 | 1/9 (2.84) |
| 40 | I51P R57T R100D | 5.57 4.15 4.51 | 4/9 (3.68) |
| 41 | F59S G99A T104C | n.d. n.d. n.d. | 0/9 |
| 42 | R56M S63L G103M | 4.29 4.03 2.72 | 3/9 (4.56) |
| 43 | S35V G61E G99V | n.d. n.d. n.d. | 4/9 (4.02) |
| 44 | T58W G61F D62S | n.d. 3.81 n.d. | 1/9 (5.14) |
| 45 | L29S R100G G103C | n.d. n.d. n.d. | 2/9 (4.00) |
| 46 | I34Q D62C G103P | n.d. n.d. 4.25 | 1/9 (4.24) |
| 47 | G33A I51C F59I | n.d. 3.57 n.d. | 2/9 (3.30) |
| 48 | I34R A101T D106L | n.d. n.d. n.d. | 0/9 |
| 49 | V50T R100M D106I | n.d. n.d. n.d. | 1/9 (2.84) |
| 50 | N30D R56H A102F | n.d. 4.01 3.98 | 7/9 (4.27) |
| 51 | L29I S53R Y60R | n.d. n.d. n.d. | 0/9 |
| 52 | G33S R56Y G103F | n.d. n.d. n.d. | 2/9 (3.36) |